Molecular target: SSTR1 (Homo sapiens (Human), UniProt P30872)
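Note: binding assay on CHO-K1 cell membranes overexpressing SSTR1, incubated 60 min at room temperature, bound fraction collected on filters and read by scintillation counting.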

Amino acid sequences for entries named in this document (tags omitted). A change or cut given only in a name is not applied to a line headed by its entry.
UniProt P30872: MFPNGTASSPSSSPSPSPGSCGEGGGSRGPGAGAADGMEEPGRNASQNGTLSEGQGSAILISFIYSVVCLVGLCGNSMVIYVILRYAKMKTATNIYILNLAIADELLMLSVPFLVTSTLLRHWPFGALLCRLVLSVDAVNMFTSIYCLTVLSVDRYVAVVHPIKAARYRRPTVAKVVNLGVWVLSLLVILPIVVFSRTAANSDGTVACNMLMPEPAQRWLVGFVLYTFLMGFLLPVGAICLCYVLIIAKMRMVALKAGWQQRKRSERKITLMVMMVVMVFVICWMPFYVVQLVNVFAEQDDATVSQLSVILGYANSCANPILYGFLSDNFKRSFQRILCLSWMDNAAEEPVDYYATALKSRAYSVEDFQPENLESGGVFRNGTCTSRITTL

Compound: C[C@H]1CNCC[C@@H]1NC(=O)C1(Cc2cccc(Cl)c2)CC1 [Example 15, 1-(3-chlorobenzyl)-N-((3S,4S)-3-methylpiperidin-4-yl)cyclopropane-1-carboxamide]
- IC50: 6.31 µM

Reference: patent US20250188037A1, “N-(PYRROLIDIN-3-YL OR PIPERIDIN-4-YL)ACETAMIDE DERIVATIVES” (Takeda Pharmaceutical Company Limited, priority 2022, published 2025)
